# pIC50: −log10 of the molar value.
# Amino acid sequences for entries named in this document (tags omitted).
# UniProt P10635, whole entry: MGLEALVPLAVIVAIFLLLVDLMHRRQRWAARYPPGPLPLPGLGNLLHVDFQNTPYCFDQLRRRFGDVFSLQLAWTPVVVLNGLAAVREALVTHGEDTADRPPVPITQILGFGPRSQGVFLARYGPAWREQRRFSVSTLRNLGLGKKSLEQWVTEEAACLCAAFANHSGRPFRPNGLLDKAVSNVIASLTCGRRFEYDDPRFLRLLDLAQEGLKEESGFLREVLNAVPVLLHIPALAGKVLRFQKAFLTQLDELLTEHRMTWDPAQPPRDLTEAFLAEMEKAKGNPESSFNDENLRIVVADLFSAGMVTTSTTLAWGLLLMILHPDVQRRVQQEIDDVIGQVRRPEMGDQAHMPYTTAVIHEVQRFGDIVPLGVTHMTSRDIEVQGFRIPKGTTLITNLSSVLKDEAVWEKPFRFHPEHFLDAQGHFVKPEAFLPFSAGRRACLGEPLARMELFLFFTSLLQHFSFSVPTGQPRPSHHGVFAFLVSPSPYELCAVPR
# Molecular target: CYP2D6 (Homo sapiens, UniProt P10635)
# Test: Inhibitory activity on CYP2D6, human recombinant CYPs
row,SMILES,pIC50
1,"Cn1c(N2CCOC(c3ccc(-c4ccoc4)cc3)C2)nc(-c2ccncn2)cc1=O (centres unmarked) [Compound 3, 2-[2-(4-Furan-3-yl-phenyl)-morpholin-4-yl]-1-methyl-1H-[4,4′]bipyrimidinyl-6-one]",5.64
2,"Cn1c(N2CCOC(c3ccc(-n4cccn4)cc3)C2)nc(-c2ccncn2)cc1=O (centres unmarked) [Compound 5, 1-Methyl-2-[2-(4-pyrazol-1-yl-phenyl)-morpholin-4-yl]-1H-[4,4′]bipyrimidinyl-6-one]",5.72

# From US8518939B2, “6-pyrimidinyl-pyrimid-4-one derivative” (Mitsubishi Tanabe Pharma Corporation, priority 2007, dated 2013)
